Test results as given in patent US20170157260A1, “Glycosylated Polypeptide and Drug Composition Containing said Polypeptide” (Glytech, Inc., priority 2011, published 2017).
Where two headings read alike, the source gives them in different places.

By UniProt entry, the sequences of proteins in these tests, tags left out. Where a name states a change or a piece, a line headed by the entry shows the natural chain unless it says otherwise.
UniProt P32745: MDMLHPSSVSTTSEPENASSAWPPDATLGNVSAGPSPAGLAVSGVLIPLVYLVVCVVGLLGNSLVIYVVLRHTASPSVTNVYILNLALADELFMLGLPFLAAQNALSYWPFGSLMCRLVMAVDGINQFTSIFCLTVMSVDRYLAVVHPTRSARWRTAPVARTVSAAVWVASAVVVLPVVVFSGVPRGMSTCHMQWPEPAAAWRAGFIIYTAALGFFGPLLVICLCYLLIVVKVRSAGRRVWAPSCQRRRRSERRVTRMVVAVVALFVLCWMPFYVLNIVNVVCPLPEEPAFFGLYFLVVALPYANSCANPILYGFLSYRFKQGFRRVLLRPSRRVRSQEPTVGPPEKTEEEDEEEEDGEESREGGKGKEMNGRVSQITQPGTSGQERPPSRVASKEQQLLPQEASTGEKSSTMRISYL
UniProt P35346: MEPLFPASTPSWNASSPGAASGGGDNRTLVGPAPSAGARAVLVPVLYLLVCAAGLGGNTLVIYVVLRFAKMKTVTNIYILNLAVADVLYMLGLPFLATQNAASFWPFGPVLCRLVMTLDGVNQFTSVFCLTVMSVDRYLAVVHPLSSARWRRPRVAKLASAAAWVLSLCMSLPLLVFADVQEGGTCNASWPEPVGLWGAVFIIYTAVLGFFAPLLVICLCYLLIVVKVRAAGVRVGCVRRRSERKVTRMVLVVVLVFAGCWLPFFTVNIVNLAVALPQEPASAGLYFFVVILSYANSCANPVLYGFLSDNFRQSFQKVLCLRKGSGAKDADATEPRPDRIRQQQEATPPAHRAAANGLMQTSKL
UniProt P30874: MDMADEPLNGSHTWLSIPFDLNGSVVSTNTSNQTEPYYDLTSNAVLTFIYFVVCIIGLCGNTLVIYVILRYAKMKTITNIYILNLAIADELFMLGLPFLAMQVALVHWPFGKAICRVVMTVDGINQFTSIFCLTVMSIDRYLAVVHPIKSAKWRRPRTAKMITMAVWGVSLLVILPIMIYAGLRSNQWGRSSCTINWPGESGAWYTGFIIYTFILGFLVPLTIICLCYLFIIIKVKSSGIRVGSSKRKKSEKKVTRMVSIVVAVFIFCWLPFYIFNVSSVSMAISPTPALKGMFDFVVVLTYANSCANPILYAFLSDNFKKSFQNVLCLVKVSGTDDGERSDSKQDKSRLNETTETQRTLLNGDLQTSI
UniProt P31391: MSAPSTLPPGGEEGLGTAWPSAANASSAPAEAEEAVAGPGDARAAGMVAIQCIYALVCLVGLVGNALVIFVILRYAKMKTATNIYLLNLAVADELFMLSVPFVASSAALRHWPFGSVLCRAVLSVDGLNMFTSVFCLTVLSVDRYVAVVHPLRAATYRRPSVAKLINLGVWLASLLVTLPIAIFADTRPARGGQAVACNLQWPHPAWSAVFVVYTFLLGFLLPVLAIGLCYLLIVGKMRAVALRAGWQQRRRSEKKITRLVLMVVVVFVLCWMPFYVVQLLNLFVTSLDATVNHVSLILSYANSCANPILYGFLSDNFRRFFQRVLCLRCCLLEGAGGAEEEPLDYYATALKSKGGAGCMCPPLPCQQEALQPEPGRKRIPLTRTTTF
UniProt P30872: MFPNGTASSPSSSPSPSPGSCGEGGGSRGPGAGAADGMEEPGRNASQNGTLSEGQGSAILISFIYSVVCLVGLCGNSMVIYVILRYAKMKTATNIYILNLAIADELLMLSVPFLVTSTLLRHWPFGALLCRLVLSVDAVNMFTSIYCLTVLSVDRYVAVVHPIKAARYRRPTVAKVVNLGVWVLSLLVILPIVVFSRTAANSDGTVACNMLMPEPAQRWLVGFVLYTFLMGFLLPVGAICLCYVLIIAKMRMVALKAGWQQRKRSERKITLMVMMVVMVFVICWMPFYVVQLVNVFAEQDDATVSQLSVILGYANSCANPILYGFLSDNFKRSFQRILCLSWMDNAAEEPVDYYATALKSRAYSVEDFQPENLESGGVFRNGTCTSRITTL

How the values were obtained:
SSTR3 [1] = biological target: T1, SSTR3 (Homo sapiens, UniProt P32745); assay: Competitive binding assay, SSTR3; settings: Table 3B, Example 67-2, competitive binding assay; for IC50: read-out: SSTR3 IC50; for Ki: read-out: SSTR3 Ki
SSTR5 [2] = biological target: T2, SSTR5 (Homo sapiens, UniProt P35346); assay: Competitive binding assay, SSTR5; settings: Table 3B, Example 67-2, competitive binding assay; for IC50: read-out: SSTR5 IC50; for Ki: read-out: SSTR5 Ki
SSTR2 [3] = biological target: T3, SSTR2 (Homo sapiens, UniProt P30874); assay: Competitive binding assay, SSTR2; settings: Table 3B, Example 67-2, competitive binding assay; for IC50: read-out: SSTR2 IC50; for Ki: read-out: SSTR2 Ki
[4] = Pharmacokinetics test with rats (intravenous and subcutaneous administration); settings: rats; for extension of t1/2 compared to the non-glycosylated form (SRIF28 or SRIF14) / increase of AUC compared to the non-glycosylated form (SRIF28 or SRIF14): administered intravenously; for BA: subcutaneous vs intravenous
SSTR4 = SSTR4 (Homo sapiens, UniProt P31391); assay: Agonist activity evaluation (cAMP production suppression), SSTR4 receptor expression cells; format: cell-based
SSTR3 [5] = biological target: T1, SSTR3; assay: Agonist activity evaluation (cAMP production suppression), SSTR3 receptor expression cells; format: cell-based; design: host or cells: CHO-K1 cells; settings: Table 3E, Example 67-4; read-out: IC50 of the agonist activity, SSTR3
SSTR2 [6] = biological target: T3, SSTR2; assay: Agonist activity evaluation (cAMP production suppression), SSTR2 receptor expression cells; format: cell-based; design: host or cells: CHO-K1 cells; settings: Table 3E, Example 67-4; read-out: IC50 of the agonist activity, SSTR2
SSTR2 [7] = biological target: T3, SSTR2
SSTR1 [8] = biological target: T4, SSTR1 (Homo sapiens, UniProt P30872)
SSTR5 [9] = biological target: T2, SSTR5
SSTR3 [10] = biological target: T1, SSTR3
SSTR1 [11] = biological target: T4, SSTR1; assay: Competitive binding assay, SSTR1; settings: Table 3B, Example 67-2, competitive binding assay; for IC50: read-out: SSTR1 IC50; for Ki: read-out: SSTR1 Ki
SSTR5 [12] = biological target: T2, SSTR5; assay: Agonist activity evaluation (cAMP production suppression), SSTR5 receptor expression cells; format: cell-based; design: host or cells: CHO-K1 cells; settings: Table 3E, Example 67-4; read-out: IC50 of the agonist activity, SSTR5
[13] = tested on: growth hormone (GH) production; assay: GH production suppression test with rats; format: in vivo; settings: Table 8 (Example 87), vehicle 1012
[14] = Table 3E, Example 67-4; read-out: IC50 of the agonist activity, SSTR4
[15] = read-out: IC50 of the agonist activity, SSTR4; Table 3E, Example 67-4
[16] = Table 5A (Examples 69-72), spread in the line below
[17] = BA=(AUC(sc)/Dose(sc))/(AUC(iv)/Dose(iv)), Table 5A
[18] = Examples 69-72 (text on Table 5A)
[19] = Table 5E, intravenous, unit as in Table 4
[20] = Table 5E, subcutaneous, unit as in Table 4

| Substance | Ki (SSTR3 [1]) [nM] | IC50 (SSTR5 [2]) [nM] | Intravenous administration AUC ([4]; Tables 5B-5F (Examples 73-84)) [nM·min] | Intravenous administration C0 ([4]; Tables 5B-5F (Examples 73-84)) [nM] | Intravenous administration MRT ([4]; Tables 5B-5F (Examples 73-84)) [min] | Intravenous administration T1/2 ([4]; Tables 5B-5F (Examples 73-84)) [min] | Subcutaneous administration AUC ([4]; Tables 5B-5F (Examples 73-84)) [nM·min] | Subcutaneous administration Cmax ([4]; Tables 5B-5F (Examples 73-84)) [nM] | Subcutaneous administration MRT ([4]; Tables 5B-5F (Examples 73-84)) [min] | Subcutaneous administration T1/2 ([4]; Tables 5B-5F (Examples 73-84)) [min] | BA ([4]; Tables 5B-5F (Examples 73-84)) [%] | IC50 (SSTR4; [14]) [nM] | IC50 (SSTR2 [7]) [nM] | Ki (SSTR2 [7]) [nM] | IC50 (SSTR1 [8]) [nM] | IC50 (SSTR5 [9]) [nM] | IC50 (SSTR3 [10]) [nM] | Ki (SSTR1 [8]) [nM] | Ki (SSTR3 [10]) [nM] | Ki (SSTR5 [9]) [nM] | further results |
| --- | --- | --- | --- | --- | --- | --- | --- | --- | --- | --- | --- | --- | --- | --- | --- | --- | --- | --- | --- | --- | --- |
| 2C(disialo)-R-K-SRIF14 [Example 48] | 3.33 | 6.16 | 5041 | 704 | 24.1 | 31.7 | 3310 | 36.7 | 73.4 | 47.7 | 66 | 1.1 |  |  |  |  |  |  |  |  | IC50 (SSTR3 [1]): 9.74 nM; Ki (SSTR5 [2]): 3.48 nM; IC50 (SSTR2 [3]): 5.35 nM; Ki (SSTR2 [3]): 2.84 nM; extension of t1/2 compared to the non-glycosylated form (SRIF28 or SRIF14) [4]: 63 folds; increase of AUC compared to the non-glycosylated form (SRIF28 or SRIF14) [4]: 42 folds; IC50 (SSTR3 [5]): 0.55 nM; IC50 (SSTR2 [6]): 0.15 nM |
| C(disialo)-C12 linker-SRIF14 [Example 19] |  |  | 1686 | 500 | 7.60 | 11.0 | 345 | 13.4 | 22.0 | 14.4 | 21 |  | 0.502 | 0.267 | 15.5 | 2.29 | 3.12 |  |  |  | IC50 (SSTR4; [15]): 0.11 nM |
| C(disialo)-K-SRIF14 [Example 40] | 1.21 | 3.52 | 5277 | 646 | 19.4 | 18.8 | 2446 | 40.5 | 43.7 | 26.4 | 46 | 0.059 |  |  |  |  |  |  |  |  | IC50 (SSTR3 [1]): 3.55 nM; Ki (SSTR5 [2]): 1.99 nM; IC50 (SSTR1 [11]): 20.7 nM; Ki (SSTR1 [11]): 17.2 nM; IC50 (SSTR2 [3]): 1.97 nM; Ki (SSTR2 [3]): 1.05 nM; IC50 (SSTR3 [5]): 0.1 nM; IC50 (SSTR2 [6]): 0.019 nM |
| C(disialo)-SRIF14 [Example 17] |  |  |  |  |  |  |  |  |  |  | 66 | 0.1 |  | 0.179 | 32.3 |  | 2.62 | 26.7 | 1.58 |  | IC50 (SSTR3 [5]): 0.18 nM; IC50 (SSTR5 [12]): 0.23 nM |
| K14C(disialo)-SRIF28 [Example 6] |  |  | 6278 | 884 | 20.0 | 20.4 | 3945 | 57.5 | 55.1 | 35.1 | 62 |  | 0.481 | 0.256 | 13.8 | 4.01 | 2.59 | 11.4 | 0.887 | 2.27 | GH ([13]; dose 10 nmol/kg): 55 ng/mL |
| N5C(disialo)-SRIF28 [Example 2] |  |  |  |  |  |  |  |  |  |  |  |  | 0.0945 | 0.0502 | 1.1 | 0.458 | 0.278 | 0.912 | 0.095 | 0.259 | GH ([13]; dose 1 nmol/kg): 969 ng/mL; GH ([13]; dose 10 nmol/kg): 12 ng/mL; Intravenous administration AUC [4, 16]: 4421 nM·min; Intravenous administration C0 [4, 16]: 496 nM; Intravenous administration MRT [4, 16]: 22.9 min; Intravenous administration t1/2 [4, 16]: 20.1 min; Subcutaneous administration AUC [4, 16]: 2392 nM·min; Subcutaneous administration Cmax [4, 16]: 32.4 nM; Subcutaneous administration MRT [4, 16]: 51.9 min; Subcutaneous administration t1/2 [4, 16]: 28.1 min; BA [4, 17]: 54% |
| N19C(diMan)-SRIF28 [Example 52] | 0.53 | 2.94 |  |  |  |  |  |  |  |  |  | 0.11 |  |  |  |  |  |  |  |  | Ki (SSTR5 [2]): 1.66 nM; IC50 (SSTR1 [11]): 6.58 nM; Ki (SSTR1 [11]): 5.44 nM; IC50 (SSTR2 [3]): 1.17 nM; Ki (SSTR2 [3]): 0.62 nM |
| R13C(disialo)-SRIF28 [Example 5] |  |  | 4926 | 481 | 22.8 | 20.3 |  | 65.9 | 55.9 | 35.4 | 78 |  | 0.31 | 0.165 | 15.4 | 3.28 | 2.87 | 13.6 | 0.981 | 1.85 | GH ([13]; dose 10 nmol/kg): 136 ng/mL |
| S1-2C(disialo)-SRIF28 [Example 20] |  |  | 5804 | 950 | 23.0 | 28.2 | 3091 | 34.6 | 65.3 | 40.8 | 53 | 0.14 | 0.338 | 0.179 | 18.8 | 0.607 | 1.28 | 15.5 | 0.439 | 0.343 | extension of t1/2 compared to the non-glycosylated form (SRIF28 or SRIF14) [4]: 21 folds; increase of AUC compared to the non-glycosylated form (SRIF28 or SRIF14) [4]: 12 folds; Intravenous administration AUC [4, 16]: 7306 nM·min; Intravenous administration C0 [4, 16]: 1382 nM; Intravenous administration MRT [4, 16]: 23.3 min; Intravenous administration t1/2 [4, 16]: 28.8 min; Subcutaneous administration AUC [4, 16]: 4046 nM·min; Subcutaneous administration Cmax [4, 16]: 46.3 nM; Subcutaneous administration MRT [4, 16]: 67.9 min; Subcutaneous administration t1/2 [4, 16]: 40.9 min; BA [4, 17]: 55%; AUC for intravenous administration [4, 18]: 7306 nM·min; bioavailability (BA), subcutaneous administration [4, 18]: 55%; IC50 (SSTR3 [5]): 0.55 nM; IC50 (SSTR5 [12]): 0.22 nM |
| S1-3C(asialo)-SRIF28 [Example 29] |  |  |  |  |  |  |  |  |  |  |  | 0.1 | 0.0978 | 0.0519 | 4.21 | 0.369 | 0.581 | 3.49 | 0.199 | 0.209 | C0, intravenous administration ([4]; Table 5E, intravenous, extrapolation, unit as in Table 4): 1147 nM; AUC, intravenous administration [4, 19]: 2733 nM·min; MRT, intravenous administration [4, 19]: 6.50 min; T1/2, intravenous administration [4, 19]: 6.60 min; AUC, subcutaneous administration [4, 20]: 885 nM·min; Cmax, subcutaneous administration [4, 20]: 15.0 nM; MRT, subcutaneous administration [4, 20]: 42.1 min; T1/2, subcutaneous administration [4, 20]: 26.4 min; BA (bioavailability), subcutaneous administration ([4]; Table 5E, formula of b926): 32%; extension of t1/2 compared to the non-glycosylated form (SRIF28 or SRIF14) [4]: 5 folds; increase of AUC compared to the non-glycosylated form (SRIF28 or SRIF14) [4]: 6 folds; IC50 (SSTR2 [6]): 0.19 nM |
| S1C(Asn(disialo))-SRIF28 [Example 63] | 1.91 | 1.61 | 6488 | 365 | 35.9 | 27.9 | 2935 | 33.9 | 55.3 | 34.0 | 45 |  |  |  |  |  |  |  |  |  | IC50 (SSTR3 [1]): 5.57 nM; Ki (SSTR5 [2]): 0.91 nM; Ki (SSTR1 [11]): 13 nM; IC50 (SSTR2 [3]): 0.61 nM; Ki (SSTR2 [3]): 0.33 nM; IC50 (SSTR4; [15]): 0.13 nM |
